Source: ChEMBL document CHEMBL1156762, “Deciphering the mechanism of carbonic anhydrase inhibition with coumarins and thiocoumarins” (J Med Chem, 2010)
pKi: −log10 of the molar value.

Key:
[1] = target: Carbonic anhydrase 13 (Mus musculus, UniProt Q9D6N1)
[2] = target: Carbonic anhydrase 9 (Homo sapiens, UniProt Q16790)

| pKi [1] | pKi [2] | SMILES |
| --- | --- | --- |
| 5.18 | – | COc1cccc2cc(C(=O)O)c(=O)oc12 |
| – | 5.04 | O=c1ccc2ccccc2o1 [COUMARIN] |
